The text below walks through data of ChEMBL document CHEMBL2380288, “Design, synthesis, and molecular modeling of novel pyrido[2,3-d]pyrimidine analogues as antifolates; application of Buchwald-Hartwig aminations of heterocycles” (J Med Chem, 2013).

Molecules are shown by their SMILES.

Experiment [1] is described as follows: Selectivity ratio of Toxoplasma gondii DHFR over human recombinant DHFR.
A short description of experiment [2]: Selectivity ratio of Pneumocystis carinii DHFR over human recombinant DHFR.
The next experiment relates to Pneumocystis jirovecii. Description: Ratio of trimethoprim IC50 to compound IC50 for Pneumocystis jirovecii DHFR.

For the compound `COc1ccc(OC)c(CN(C)c2cnc3nc(N)nc(N)c3c2)c1`, the Selectivity ratio in experiment [1] turned out to be 303; in experiment [2], 101.

As for `CN(c1cc(F)c(F)c(F)c1)c1cnc2nc(N)nc(N)c2c1`, the Ratio IC50 with Pneumocystis jirovecii is 30.
